In patent US7973066B2, “Pyrrolo[1,2-A]imidazoledione effective in the treatment of peripheral neurotoxicity induced by chemotherapeutic agents” (Neurotune AG, priority 2006, dated 2011):

Test system: HT29 human colon carcinoma cell line
Test: In vitro cytotoxicity and combination studies, ATPlite
Settings: HT29 cells, 72 hours
Protocol: In order to verify if the use of NiK-13317 for the treatment of CIPN would not affect the efficacy of anticancer treatments, the effect of NiK-13317 on cytotoxicity of known anticancer drugs was examined in vitro using HT29 human colon carcinoma cell line.
After 72 hours, cells were lysed and cell metabolic activity was quantified with ATPlite kit (Perkin Elmer Life Science) following manufacturer's recommendations. The ATP present in all metabolically active cells catalyses a reaction of transformation of D-luciferin by Luciferase, producing a luminescent signal measured using VICTOR^3™ Multi Label Reader (Perkin Elmer). Results were expressed as percentage of luminescence produced (i.e. ATP produced) compared to the control. Complete concentration-response curves with anticancer drugs were constructed in order to identify the concentrations producing a submaximal and a maximal cytotoxic effect, to be utilized for combination experiments.

O=C1[O][Pt]2([NH][C@@H]3CCCC[C@H]3[NH]2)[O]C1=O [oxaliplatin]
concentration of maximal cytotoxic effect: 100 µM
